Consider two molecules from patent US10689377B2.

One may read the IC50 as the point on the concentration scale where inhibition reaches its midpoint.

The target in assay [1] is KRas G12C (Homo sapiens, UniProt P01116, G12C). In words: Cellular inhibition of KRas G12C measured by Phospho-ERK in NCI-H358 cells. Format: cell-based. To be noted: pERK(Thr202/Tyr204) normalized with GAPDH, 3 hours.
Assay [2] addresses KRas G12C (Homo sapiens, UniProt P01116, C118S/C51S/C80L/G12C). In words: KRas G12C Modification Assay (LCMS detection of covalent adduct). In kind it is binding. To be noted: normalized percent of control; 5 μM concentration for 3 hours.

For the molecule `CN1CC(F)(F)C[C@H]1COc1nc2c(c(N3CCN(C(=O)/C=C/CN4CC(F)C4)[C@@H](CC#N)C3)n1)CCN(c1cccc3cccc(Cl)c13)C2`, on KRas G12C [1], the IC50 is above 1 µM.

Turning to `C=CC(=O)N1CCN(c2ncnc3c2CCN(c2cccc4ccc(O)cc24)C3)CC1`, the POC entry on KRas G12C [2] is “A (“A”≤25% POC)”. This molecule also registered a half-maximal inhibitory concentration (IC50) on KRas G12C [1] above 1 µM.
